As a reminder, the EC50 is the concentration that produces a half-maximal response. By IC50 is commonly meant the point on the concentration scale where inhibition reaches its midpoint.

Protein sequences, listed by entry. Tags and fused reporters are not part of them. Residues count along the entry.
UniProt P17706, 1-387 isoform 2: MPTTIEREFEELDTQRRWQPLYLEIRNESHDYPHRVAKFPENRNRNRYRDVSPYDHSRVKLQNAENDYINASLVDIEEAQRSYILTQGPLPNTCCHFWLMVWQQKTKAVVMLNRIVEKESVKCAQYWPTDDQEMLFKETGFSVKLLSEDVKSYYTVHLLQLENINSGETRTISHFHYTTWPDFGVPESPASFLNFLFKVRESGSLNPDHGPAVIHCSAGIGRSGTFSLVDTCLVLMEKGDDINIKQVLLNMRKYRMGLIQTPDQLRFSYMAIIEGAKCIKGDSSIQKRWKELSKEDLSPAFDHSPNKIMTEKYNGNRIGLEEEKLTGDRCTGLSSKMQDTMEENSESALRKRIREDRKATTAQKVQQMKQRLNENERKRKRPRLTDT

These results are taken from patent publication US20250042894A1, “PROTEIN TYROSINE PHOSPHATASE INHIBITORS AND METHODS OF USE THEREOF” (Calico Life Sciences LLC, priority 2021, published 2025).

Assay [1] has as its system IFNγ-induced STAT1 phosphorylation (pSTAT1) in B16F10 cells. Description: B16F10 Phospho-STAT1 HTRF proximal pharmacodynamic (PD) assay. As to conditions: read-out: pSTAT1 EC50, Table 3, thiochromanes (X = S) and chromane comparators (X = O). As for the experimental part: Example 45: B16F10 (Murine Melanoma Cells) Phospho-STAT1 HTRF Proximal Pharmacodynamic (PD) Assay
B16F10 cells were grown and maintained in high glucose DMEM (Gibco, Catalog #11965-092, Dun Laoghaire Co Dublin) supplemented with 10% fetal bovine serum (Gibco, Catalog #10082-139, Dun Laoghaire Co Dublin). The cells were pelleted and resuspended in high glucose DMEM without phenol red (Gibco, Catalog #11054-020, Dun Laoghaire Co Dublin), supplemented with 10% fetal bovine serum and plated in a 384 well Corning plate (product #3765, Corning, NY) at 11,000 cells per well in a volume of 20 μL. The cells were dosed with the compounds of interest using an Echo Liquid Handler (Beckman Coulter, Brea, CA) at 50 μM top dose with 3-fold dilutions down to 0.002679 μM for a 10-point dose response. The plate was incubated for 3 hours at 37° C. and subsequently treated with recombinant mouse IFNγ (R&D Systems, Catalog #485-MI, Minneapolis, MN; 100 nM final concentration) for 10 minutes at 37° C. to induce STAT1 phosphorylation followed by 3.3 μM staurosporine treatment for 1 hour at 37° C. to terminate phosphorylation. […] The plate was incubated for 3 hours at room temperature and read on an EnVision® (Perkin Elmer) plate reader with laser excitation at 335 nm and emission at 665 nm. […]
For orientation: Time-resolved FRET reads energy transfer from a long-lived donor to a nearby acceptor.

Assay [2] deals with His tagged PTPN2 (TC45) protein (Homo sapiens, UniProt P17706). Briefly: Mobility Shift Assay (MSA) for PTPN2 inhibitors. The conditions noted are these: read-out: PTPN2 MSA IC50; Table 3; thiochromanes (X = S) and chromane comparators (X = O). How it is done: Example 43: Mobility Shift Assay (MSA) Used to Determine Potency of PTPN2 Inhibitors
Compound activity was determined using in house His tagged PTPN2 (TC45) protein (SEQ ID NO: 1) in an in vitro enzymatic reaction. The enzymatic assay used to determine activity was a mobility shift assay using a LabChip EZ Reader by Caliper Life Sciences. The enzymatic reaction was carried out in assay buffer (50 mM HEPES pH 7.5, 1 mM EGTA, 10 mM EDTA, 0.01% Tween® 20, and 2 mM DTT). The compounds were dispensed on a white 384 well ProxiPlate™ (PerkinElmer Catalog #6008289) plate using the Labcyte Echo at varying concentrations (12 point, 1:3 dilution). The enzyme (at 0.5 nM) was incubated with compound for 10 minutes at room temperature. Thereafter, the substrate (phosphorylated insulin receptor probe sequence: ((OG488)-(NH—CH2—CH2—O—CH2—CH2—O—CH2—CO)-T-R-D-I—(PY)-E-T-D-Y—Y—R—K—K—NH2) (SEQ ID NO: 2) was added at 2 μM to the plates and incubated for another 10 minutes at room temperature. Finally, a quench solution (water and 4-bromo-3-(2-oxo-2-propoxyethoxy)-5-(3-{[1-(phenylmethanesulfonyl)piperidin-4-yl]amino}phenyl)thiophene-2-carboxylic acid) was added to the plates, which were then run on the EZ Reader (excitation 488 nm, emission 530 nm) to measure % conversion (the amount of phosphorylated substrate which was de-phosphorylated by PTPN2). […]

Each structure is given as a SMILES string.

For `O=C1CN(c2c(O)cc3c(c2F)C[C@H](NCCCOCC(F)F)CO3)S(=O)(=O)N1`, the EC50 in assay [1] was over 50000 nM. In addition, the IC50 in assay [2] is 23 nM.

As for `O=C1CN(c2c(O)cc3c(c2F)C[C@H](NCCCC(F)F)CO3)S(=O)(=O)N1`, the IC50 in assay [2] stood at 8 nM.
